Antibody variant affinities, Ab-95 light chain, assay 2

Antigen: PDVDLGDISGINAS, a 14-residue peptide of the SARS-CoV-2 spike HR2 region.

Parent scFv Ab-95: VH joined to VL by the linker GGGGSGGGGSGGGGS. Changes lie in the light chain CDRs alone.
VH: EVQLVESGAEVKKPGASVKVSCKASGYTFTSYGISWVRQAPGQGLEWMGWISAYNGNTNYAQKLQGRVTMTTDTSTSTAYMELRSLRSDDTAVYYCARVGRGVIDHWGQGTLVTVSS
VL: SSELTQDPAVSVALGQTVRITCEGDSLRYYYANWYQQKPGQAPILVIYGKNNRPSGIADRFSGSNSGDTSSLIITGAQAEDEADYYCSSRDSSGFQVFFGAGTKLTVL

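Phage display of a naive human antibody library on the peptide gave the parent. In library AAYL52, one, two or three CDR residues were substituted; doubles and triples were drawn at random. Affinity was read by AlphaSeq, a pooled yeast mating assay with surface-displayed partners. Binding brings cells together so that they mate, and sequencing counts the barcode pairs among the diploids. Read counts were normalised to the haploid input and turned into Kd by a linear fit to BCL2-family pairs of known affinity, for each replicate. The assay was run in three technical replicates.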

Substitutions are numbered in sequence along the VL above, starting at 1 (not Kabat). Values are log10 of the apparent Kd in nM; lower means stronger binding. The mean shown is taken over the replicates in which the pair was detected. "nd" means that the variant was in the library but no mating with the target was seen in any replicate; the authors take this as a sign of poor binding, and no number exists. Three control strains display no target. For library AAYL52, 28% of the pairings with them gave a signal, with a median of 3.91 and one signal in twenty below 2.90, so weak values seen in few replicates may be background.

| changes | mean log10 Kd (nM) | replicates with signal |
|---|---|---|
| E23K+G24A+K50G | 2.20 | 3 of 3 |
| Y31M+R53K+S93L | 1.72 | 3 of 3 |
| Y29A+S88G+F98L | 2.73 | 3 of 3 |
| G49S+V97M | 5.21 | 1 of 3 |
| G24D+N51M+Q96N | 3.77 | 2 of 3 |
| L27G+P54Y+R90N | 4.97 | 1 of 3 |
| G24T+A32M+S88M | 3.18 | 2 of 3 |
| P54N+S55G+F95D | 3.58 | 1 of 3 |
| P54W+Q96W+F98P | 3.65 | 1 of 3 |
| G24E+L27V+D91Y | nd | 0 of 3 |
| S26T+G49W+P54I | nd | 0 of 3 |
| S26F+R90S+S93R | 3.96 | 2 of 3 |
| E23C+Y30T+R90N | 3.13 | 2 of 3 |
| S26Q+F95D | 4.04 | 3 of 3 |
| R90C+S92P+F95G | 2.50 | 3 of 3 |
| K50I+R53V+S88Y | 4.63 | 2 of 3 |
| R53W+S55L+R90Y | 4.54 | 2 of 3 |
| N52V+S55P | 3.07 | 3 of 3 |
| R53F+S88E+V97N | 3.02 | 1 of 3 |
| P54V+S55N+R90K | 4.32 | 3 of 3 |
| Y31C+G49A+N52F | 3.80 | 1 of 3 |
| G49F+V97I+F98C | 3.04 | 1 of 3 |
| R53Y+S88P+F98A | 4.40 | 1 of 3 |
| N52S+S89T+D91R | 2.46 | 3 of 3 |
| E23R+G24I+R90L | 3.46 | 3 of 3 |
| Y30S+K50G+S88F | 2.88 | 3 of 3 |
| E23I+Y30K | 1.32 | 3 of 3 |
| S88D+F95E+F98A | nd | 0 of 3 |
| E23C+Y31S+G49K | 4.24 | 1 of 3 |
| Y29P+K50N+S89G | 2.94 | 3 of 3 |
| D25T+K50Y+S55Q | 3.24 | 3 of 3 |
| N52R+P54L+V97Y | 4.70 | 1 of 3 |
| G49V+K50E+Q96Y | 3.40 | 2 of 3 |
| G49I+N52S+D91V | 3.69 | 2 of 3 |
| L27K+S88R+Q96A | nd | 0 of 3 |
| S26N+N51Y+S92C | 3.00 | 1 of 3 |
| L27C+R28L+F98N | 4.40 | 1 of 3 |
| L27M+S89Q+Q96F | 2.45 | 1 of 3 |
| Y31M+A32Q+R90L | 4.06 | 2 of 3 |
| Y31T+A32G+S92H | 2.63 | 2 of 3 |
| N51D+R90M+S93V | 3.87 | 1 of 3 |
| N33K+N51Y+G94A | nd | 0 of 3 |
| S26N+R90Q+S92I | 3.46 | 2 of 3 |
| G24N+G49T+K50E | 4.05 | 2 of 3 |
| N33R+D91G+F95G | 3.95 | 2 of 3 |
| E23N+D91N | 2.74 | 2 of 3 |
| S88E+V97M | 1.94 | 3 of 3 |
| Y31D+G94K+V97M | nd | 0 of 3 |
| D25G+Q96D+V97C | 2.38 | 3 of 3 |
| E23M+N51S+F98M | 2.56 | 3 of 3 |
| E23D+V97T+F98Y | 3.09 | 3 of 3 |
| L27C+Y30V+F95A | nd | 0 of 3 |
| N33Y+K50T+S88G | 4.28 | 3 of 3 |
| A32M+N51L+R90Q | nd | 0 of 3 |
| R53A+S88I+Q96D | 3.94 | 1 of 3 |
| E23I+L27P+K50F | nd | 0 of 3 |
| L27S+N33M | 4.18 | 1 of 3 |
| Y31N+P54K+V97N | 1.87 | 3 of 3 |
| R90I+S93I+Q96G | 4.13 | 1 of 3 |
| N51L+P54A+S89F | nd | 0 of 3 |
| A32R+N52M+R90D | 4.47 | 3 of 3 |
| G49C+S93H+G94I | 3.85 | 1 of 3 |
| Y29W+R90A | 3.12 | 2 of 3 |
| K50M+F95A+V97E | 2.02 | 3 of 3 |
| L27Y+A32F+S92P | 2.95 | 3 of 3 |
| Y31I+N52H+G94S | 3.28 | 1 of 3 |
| G24R+P54C+S92Q | 3.19 | 3 of 3 |
| N51E+S55M+S89R | 3.75 | 1 of 3 |
| N33V+G94A+V97G | nd | 0 of 3 |
| G24P+S26Y+G49E | 3.50 | 3 of 3 |
| E23D+S93D+F95C | 2.83 | 1 of 3 |
| Y31C+Q96E | 3.04 | 3 of 3 |
| G49A+R90W+D91F | 4.62 | 1 of 3 |
| R28N+G94N+V97H | nd | 0 of 3 |
| S26K+R53H+S55V | 4.84 | 3 of 3 |
| L27N+G49W+F98R | 3.59 | 3 of 3 |
| Y30S+R53Y+F98I | 3.25 | 3 of 3 |
| N51P+D91P+Q96H | 4.41 | 1 of 3 |
| S93K+V97C | 2.28 | 3 of 3 |

The last 10 entries again:

changes,mean log10 Kd (nM),replicates with signal
G24P+S26Y+G49E,3.50,3 of 3
E23D+S93D+F95C,2.83,1 of 3
Y31C+Q96E,3.04,3 of 3
G49A+R90W+D91F,4.62,1 of 3
R28N+G94N+V97H,nd,0 of 3
S26K+R53H+S55V,4.84,3 of 3
L27N+G49W+F98R,3.59,3 of 3
Y30S+R53Y+F98I,3.25,3 of 3
N51P+D91P+Q96H,4.41,1 of 3
S93K+V97C,2.28,3 of 3

For reference, the parent read 2.31 as the reference entry and 2.25 as a member of this library.

Values reported by Engelhart et al. 2022, doi:10.1038/s41597-022-01779-4 (FLAb copy).